PubChem BioAssay AID493228 (Broad Institute, 2011)
Only a part is listed here, and it is no random draw. Inconclusive results are not listed. Activity calls are given as the source filed them.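 The calls were made as follows: active = fitted dose curve passes 500% activation at or below the top valid tested dose; inconclusive = no clear call, values can overlap the other calls; inactive = the rest, opposite-direction activity included.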

Experiment: HRE-luciferase activation under added iron, dose response, mechanism study for HIF activator project, cell-based, iron medium, luminescence, U2OS, dry powder (AID 493228)
Conditions: U2OS HRE-luciferase reporter, at 38 µM (top of the series)
How it was run: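 system = U2OS 3×HRE-luciferase reporter cells | input = 6,000 cells/well | compound = 8 concentrations, 3-fold spacing | technique = luciferase luminescence with Steady-Glo reagent | buffer or medium = medium supplemented with ferric nitrate, 50 µM final | timing = 24 h cell plating, 24 h compound exposure, 37 °C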

**Q.** With `O=c1[nH]c2ccccc2n1C1CCN(Cc2ccc(O)c3ncccc23)CC1` as the compound, how does the activation read?
**A.** inactive: 22.5%
